gsp ag – activates gsp, the McCune-Albright syndrome mutation | Potency, µM (highest dose often 76.9 µM), without a hit: top-dose activation (cAMP increase), usual class: activators | gsp mutant cells, cAMP HTRF, 30 min | 340,000 tested, 0.13% active; active means well fitted activation curve with a large enough effect; inconclusive means small, poorly fitted or top-dose-only effect, or another doubt; inactive means no such curve, though single readings can be large or run the other way; cell line not stated here;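 further: phosphodiesterase inhibitor Ro 20-1724 added with compounds to block cAMP breakdown; nearly all actives have a fitted effect of over 60% in size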
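Cells in DMEM/10% FBS with G418 were pretreated with compounds in DMSO plus […] (300 uM stock) for 30 min at 37C. cAMP was measured by HTRF (cAMP-d2 plus anti-cAMP antibody-K) after 30 min at room temperature.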
Rango release inh – inhibition of RanGTP-driven Rango-importin beta dissociation; O95149+P62826; Biochemical FRET Rango-importin beta, RanGTP-induced dissociation; Potency, µM (top dose mostly 46.1 µM), without a hit: at the top dose activity change, negative = inhibition; 340,000 tested, 0.071% active; further: % of control where 0% means no effect; nearly all actives have a fitted effect of over 45% in size
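Two FRET readings bracket the reaction: one 5 min after compound meets Rango–importin beta, another 45 min after RanGTP-RCC1 (0.6 uM Ran, 0.2 uM RCC1, 2 mM GTP) is added. Only the second defines inhibition.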
Rango complex inh – prevents formation of the Rango-importin beta complex. 340,000 tested, 0.031% active. AID 540263. Potency, µM (titrated, usually from 92.2 µM), for the others: at the highest dose inhibition of complex formation. Q14974. Rango CFP/YFP FRET sensor + importin beta, 45 min;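 further: 0% = DMSO wells and 100% = buffer wells lacking importin beta; nearly all actives have a fitted effect of over 15% in size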
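Inhibition scored from the CFP 486 nm/YFP 530 nm FRET ratio 45 min after adding 0.125 microM importin beta to 50 nM Rango biosensor preincubated 5 min with compound (room temperature, PBS with DTT, Tween-20, BSA). No-importin wells as positive control.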
gsp antag – antagonists of gsp mutant (McCune-Albright syndrome). AID 624288. gsp-mutant cells, cAMP HTRF, 30 min. 340,000 tested, 0.4% active. Potency, µM (titrated, usually from 76.9 µM), without a hit: top-dose activity change, negative = inhibition, most hits filed as inhibitors; calls by dose curve; cell line not stated here;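 further: intracellular cAMP measured with PDE inhibitor Ro 20-1724 present during compound exposure; on the % scale 0 is the no-effect control and ±100 the full control effect; nearly all actives have a fitted effect of over 65% in size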
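HTRF cAMP measurement after 30 min RT detection following 30 min, 37C compound treatment alongside […] (added as 300 uM solution) in G418-selected cells seeded at 2000/well and grown 16–24 h.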
ASM inhibitor – human S-ASM enzyme inhibition; 340,000 tested, 0.006% active; AID 504937; Potency, µM (highest dose often 57.5 µM), inactives show at the top dose activity change, negative = inhibition, most hits filed as inhibitors; placental ASM, HMU-PC fluorogenic substrate, 60 min; P17405; active means well fitted inhibition curve with a large enough effect; inconclusive means small, poorly fitted or top-dose-only effect; inactive means no such curve, though single readings can be large or run the other way
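Fluorescence read-out (Ex 386 nm, Em 447 nm) after stopping the reaction at pH 10. Enzyme: ASM from human placenta; substrate HMU-PC0, 9 uM final; 60 min, 37 °C. Compound preincubation 10 min, ambient temperature.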
An asterisk follows results filed as active; ? = inconclusive; . = no result; [ ] = another dose, or the depositor's remark. Shown are actives, neighbours in structure and some others; about 0.67% of the full set was active somewhere. Unless noted, the call rests on the fitted dose curve. Potency means the concentration at half of the fitted maximal effect.

Screens by letter – A = gsp ag; B = Rango release inh; C = Rango complex inh; D = gsp antag; E = ASM inhibitor
#1 CCn1c(=S)[nH]c2nc3c(cc2c1=O)CCCC3
  A: 8.9µM*	B: -1%	C: 0%	D: 16%	E: 2%

#2 Cc1ccccc1NC(=O)CN1C(=O)N/C(=C\c2ccccc2OCc2ccc(C(=O)O)cc2)C1=O
  A: 1%[15.4 µM]	B: 6%	C: -9%	D: 1%	E: -11%

#3 NC(=O)c1ccsc1NC(=O)CN1CCN(S(=O)(=O)c2ccccc2C(F)(F)F)CC1
  A: 15%	B: 1%	C: -1%	D: 50µM*	E: -12%

#4 CCc1ccc(Nc2n[n+](-c3ccccc3)c(-c3c(Cl)cccc3Cl)s2)cc1
  A: .	B: -5%	C: ?	D: 32µM*	E: -25%

#5 CS(=O)(=O)c1ccc(NC(=O)c2cccc(S(=O)(=O)N3CCN(Cc4ccccc4)CC3)c2)cc1
  A: -8%	B: -8%	C: -1%	D: -17%	E: -2%

#6 COc1ccccc1CNC(=O)COC(=O)c1ccc(Cl)c(N)c1
  A: -9%[15.4 µM]	B: 1%	C: 1%	D: 11µM*	E: 12%

#7 Cn1cc(/C=C2\SC(=O)N(c3ccccc3)C2=O)c2ccccc21
  A: -6%[15.4 µM]	B: 4%	C: ?	D: 45µM*	E: -2%

#8 Cn1cc(/C=C2\SC(=O)N(c3ccc(O)cc3)C2=O)c2ccccc21
  A: 0%	B: ?	C: ?	D: 32µM*	E: -7%

#9 O=C(Nc1cccc(Cl)c1)c1ccc(-n2cncn2)c([N+](=O)[O-])c1
  A: 21%	B: -3%	C: 2%	D: -11%	E: -5%

#10 Cc1ccc(N2CCN(C(=S)Nc3ccc(Cl)cc3)CC2)cc1
  A: ?	B: 7%	C: 0%	D: 8%	E: 2%

#11 CC1(C(=O)OCC(=O)Nc2nc(-c3ccc(F)c(F)c3)cs2)CC1(Cl)Cl (stereo not drawn)
  A: -31%	B: -15%	C: -2%	D: 50µM*	E: -5%

#12 COc1ccc(CC(=O)Nc2nc(-c3ccc(F)c(F)c3)cs2)cc1
  A: 0%[15.4 µM]	B: 7%	C: 0%	D: ?	E: -4%

#13 NS(=O)(=O)c1ccc(N2CCN(C(=O)c3ccco3)CC2)nc1
  A: -5%	B: 36%	C: 7%	D: 1%	E: 3%

#14 CC1(C)Cc2c(ccc3ccccc23)/C(=C/C(=O)N2CCCCC2)N1
  A: -5%	B: ?	C: ?	D: 35µM*	E: -11%

#15 Oc1ccccc1C=NN=C1c2ccccc2-c2ccccc21
  A: ?	B: 4%	C: 1%	D: -4%	E: -18%

Entries by screen from above.
gsp antag, entries 3 to 10, in order: 50µM*, 32µM*, -17%, 11µM*, 45µM*, 32µM*, -11%, 8%

The listing picks up with the two entries that preceded the break.
Screens by letter – A = gsp ag; B = Rango release inh; C = Rango complex inh; D = gsp antag; E = ASM inhibitor
#14 CC1(C)Cc2c(ccc3ccccc23)/C(=C/C(=O)N2CCCCC2)N1
  A: -5%	B: ?	C: ?	D: 35µM*	E: -11%

#15 Oc1ccccc1C=NN=C1c2ccccc2-c2ccccc21
  A: ?	B: 4%	C: 1%	D: -4%	E: -18%

#16 C/C(=N/N=C/c1ccccc1O)c1ccccc1O
  A: ?	B: ?	C: 37µM*	D: 6%	E: -3%

#17 COc1ccc(CCNC(=O)c2ccc3c(c2)N(Cc2ccc(F)cc2)CCS3)c(OC)c1
  A: 7.1µM*	B: 9%	C: -2%	D: -15%	E: 251%

#18 COCc1nc2oc3ccccc3c(=O)c2cc1C(=O)OC
  A: ?	B: 6%	C: 0%	D: -6%	E: 2%

#19 Cn1c(=O)c2[nH]c(COc3ccccc3)nc2n(C)c1=O
  A: 3.2µM*	B: 29%	C: 7%	D: 3%	E: 12%

#20 Cn1c(=O)c2[nH]c(CN(Cc3ccccc3)Cc3ccccc3)nc2n(C)c1=O
  A: -13%	B: 2%	C: -1%	D: 4%	E: 1%

#21 COc1ccccc1NC(=O)COC(=O)c1c(C)nn(-c2ccccc2)c1C
  A: 0%	B: -2%	C: 4%	D: 32µM*	E: -1%

#22 CC(=O)c1ccccc1NC(=O)COC(=O)c1c(C)nn(-c2ccccc2)c1C
  A: -6%	B: 0%	C: 0%	D: ?	E: 7%

#23 Cc1nn(-c2ccccc2)c(C)c1NC(=O)COc1ccc2ccccc2c1
  A: -56%	B: 1%	C: -1%	D: 16µM*	E: -1%

#24 Cc1nn(-c2ccccc2)c(C)c1NC(=O)COc1ccccc1C#N
  A: -82%	B: .	C: .	D: .	E: .

#25 Cc1nn(-c2ccccc2)c(C)c1NC(=O)COc1ccc(Br)cc1Cl
  A: -2%[15.4 µM]	B: -9%	C: 0%	D: 35µM*	E: 4%

#26 CN(CC(=O)Nc1cc(Cl)ccc1-n1cncn1)Cc1ccccc1N1CCOCC1
  A: -47%	B: .	C: .	D: .	E: .

Screening results as filed in PubChem.
